Values of other authors as cited in PMC3364022.

Chains of the proteins cited; added tags and fusions are not shown. Lines headed by an entry give the natural chain unless they say otherwise; changes in a name come on top.
UniProt Q07820, whole entry: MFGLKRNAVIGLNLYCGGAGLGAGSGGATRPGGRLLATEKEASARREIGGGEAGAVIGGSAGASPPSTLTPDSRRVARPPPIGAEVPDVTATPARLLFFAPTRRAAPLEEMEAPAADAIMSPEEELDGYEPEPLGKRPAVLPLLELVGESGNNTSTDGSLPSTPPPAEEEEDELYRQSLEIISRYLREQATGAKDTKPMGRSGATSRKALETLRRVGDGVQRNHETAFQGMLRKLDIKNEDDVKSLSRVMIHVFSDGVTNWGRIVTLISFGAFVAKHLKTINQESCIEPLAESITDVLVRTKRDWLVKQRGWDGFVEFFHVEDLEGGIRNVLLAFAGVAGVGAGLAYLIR
UniProt O43521: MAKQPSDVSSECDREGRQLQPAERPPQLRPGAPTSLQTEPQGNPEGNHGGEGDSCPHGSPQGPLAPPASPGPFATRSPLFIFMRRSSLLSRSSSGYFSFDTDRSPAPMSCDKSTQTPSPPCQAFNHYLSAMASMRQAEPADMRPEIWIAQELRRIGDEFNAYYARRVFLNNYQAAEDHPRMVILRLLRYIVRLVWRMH

Target: Mcl-1 (Homo sapiens) (UniProt Q07820)
Assay: FP

Flu-Bim tracer BH3 (from UniProt O43521)
Kd: 1.4 nM
